Measurements: article PMC3653324 (Translational stroke research, 2012)

Chains of the proteins cited; added tags and fusions are not shown.
UniProt P05177, whole entry: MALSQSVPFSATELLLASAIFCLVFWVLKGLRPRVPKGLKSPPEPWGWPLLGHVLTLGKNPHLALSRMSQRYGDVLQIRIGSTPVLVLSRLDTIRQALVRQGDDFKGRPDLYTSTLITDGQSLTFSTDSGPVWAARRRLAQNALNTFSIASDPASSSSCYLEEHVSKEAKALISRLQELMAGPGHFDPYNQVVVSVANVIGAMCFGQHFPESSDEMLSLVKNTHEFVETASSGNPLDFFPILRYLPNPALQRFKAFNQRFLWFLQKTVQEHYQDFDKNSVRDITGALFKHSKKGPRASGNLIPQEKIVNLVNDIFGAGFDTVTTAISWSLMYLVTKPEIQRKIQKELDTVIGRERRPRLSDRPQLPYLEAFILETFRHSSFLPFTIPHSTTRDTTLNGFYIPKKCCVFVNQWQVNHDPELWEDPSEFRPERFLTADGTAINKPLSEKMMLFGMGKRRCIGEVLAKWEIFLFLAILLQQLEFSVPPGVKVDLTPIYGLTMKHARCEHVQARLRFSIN

Target: CYP1A2 (Homo sapiens, UniProt P05177)
Assay: Cloe Screen Cytochrome P450 Inhibition assay
Format: in vitro ADME

## O=c1c(O)c(-c2ccc(O)c(O)c2)oc2c1ccc1ccccc12 [CSMC-6, 3,3',4'-trihydroxy alpha-naphthoflavone]
Classified from IC50
  CYP1A2 inhibition classification: moderate inhibition
read-out: CYP1A2 IC50, human liver microsomes, substrate head: Phenacetin
  IC50: 1.14 µM
